Results from article PMC9785231, “Synthesis and Pharmacological Evaluation of Enantiopure N-Substituted Ortho-c Oxide-Bridged 5-Phenylmorphans” (Molecules, 2022).

Chains of the proteins cited; added tags and fusions are not shown.
UniProt P35372, whole entry: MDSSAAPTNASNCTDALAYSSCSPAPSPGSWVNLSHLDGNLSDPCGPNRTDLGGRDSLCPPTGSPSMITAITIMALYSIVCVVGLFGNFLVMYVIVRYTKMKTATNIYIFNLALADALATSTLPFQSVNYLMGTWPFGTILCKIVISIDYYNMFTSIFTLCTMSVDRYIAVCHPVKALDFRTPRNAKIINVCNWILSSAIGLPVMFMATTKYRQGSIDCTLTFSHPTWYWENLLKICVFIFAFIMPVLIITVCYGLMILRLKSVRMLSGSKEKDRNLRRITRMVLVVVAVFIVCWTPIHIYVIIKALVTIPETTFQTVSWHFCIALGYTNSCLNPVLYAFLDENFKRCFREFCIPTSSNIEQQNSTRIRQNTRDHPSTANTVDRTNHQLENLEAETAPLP

Target: human μ-opioid receptor (OPRM1) (Homo sapiens, UniProt P35372)
Experiment: cell-based

Compound | EC50 | Emax (read-out: MOR Agonist %Emax ± SEM)
Oc1cccc2c1O[C@H]1CN(CCc3ccccc3)[C@H]3CCC[C@@]21C3 [(-)-1, (3S,6aR,11aR)-2-Phenethyl-1,3,4,5,6,11a-hexahydro-2H-3,6a-methano-benzofuro[2,3-c]azocin-10-ol] | 2.66 nM | 35%
Oc1cccc2c1O[C@H]1CN(C[C@H]3C[C@@H]3c3ccccc3)[C@H]3CCC[C@@]21C3 [(+)-17, (3S,6aR,11aR)-2-(((1S,2S)-2-Phenylcyclopropyl)methyl)-1,3,4,5,6,11a-hexahydro-2H-3,6a-methanobenzofuro[2,3-c]azocin-10-ol] | > 10000 nM | –
